The source of these data is PubChem BioAssay (Tox21).

Molecules are shown by their SMILES. This is a selection; strong and weak results do not stand in their true shares. Records with an inconclusive call do not appear. Activity calls are given as the source filed them. Calls follow the shape of the full dose curve.
% is scaled to controls: 0 for no effect and ±100 for the full control effect; potency is read from the fitted curve at half-maximal effect.

This assay in a line: p53 small molecule agonists, cell-based qHTS assay with rat liver microsomes: qHTS cell viability counter screen (AID 1963580). Also: nearly all actives have a fitted effect of over 45% in size. To be noted: p53RE-bla HCT-116 + rat microsomes, ATP viability, 16 h; series mostly up to 66 µM; activity change, negative = cytotoxicity: at the top concentration. An excerpt:
National Center for Advancing Translational Sciences [NCATS]
Division of Preclinical Innovation [DPI]
U.S. Environmental Protection Agency [EPA]
National Institutes of Environmental Health Sciences [NIEHS]
National Toxicology Program [NTP]
U.S. Food and Drug Administration [FDA]
p53, a tumor suppressor protein, is activated following cellular insult, including DNA damage and other cellular stresses. The activation of p53 regulates cell fate by inducing DNA repair, cell cycle arrest, apoptosis, or cellular senescence. The activation of p53, therefore, is a good indicator of DNA damage and other cellular stresses. The CellSensor p53RE-bla HCT-116 cell line contains a stably integrated beta-lactamase reporter gene under control of the p53 response elements. The activation of the reporter gene under culture conditions can be detected by fluorescence intensity. This cell line was used to screen the Tox21 10K compound library in the condition of presence of rat liver microsomes and to identify agonists that activate the p53 signaling pathway after in vitro metabolic activation (Ooka et al., Archive of Toxicology 96:1975-1987, 2022). The cytotoxicity of the Tox21 compound library against the p53 RE-bla HCT-116 cell line was tested in parallel by measuring the intra cellular ATP content in the same wells.
Tox21 Assay Protocol Summary:
The p53RE-bla cells were dispensed at 4,000cells/3ul/well in 1536-well black-clear bottom plates. After the assay plates were incubated at 37 C, 5% CO2 incubator for 5 hours, 23 nL of compounds dissolved in DMSO, positive controls or DMSO only was transferred to the assay plate. Following compound addition, 3 uL of rat liver microsomes (Molecular Toxicology, Boone, NC) at final concentration of 0.5 mg/mL and 1uL of B-Nicotinamide adenine dinucleotide 2'-phosphate (NADPH) at final concentration of 0.5 mg/mL were transferred to the assay plate. The plates were incubated at 37 C for 16 hours. 1 uL of LiveBLAzer detection mixture was added to each well and the plates were incubated at room temperature in the dark for 2 h. Fluorescence intensity at 460 and 530 nm emission and 405 nm excitation were measured by an Envision plate reader. For cell viability readout that measures cytotoxicity, 4 ul/well of CellTiter-Glo reagent was added into the assay plates using a Flying Reagent Dispenser. After 30 min incubation at room temperature, the luminescence intensity in the plates was measured using a ViewLux plate reader.
(In general: Quantitative high-throughput screening tests each substance at several concentrations.)
Consider `CCNC(C)Cc1ccc2c(c1)OCO2` (stereo not drawn), for which the “activity change, negative = cytotoxicity” value is inactive: 5.2%.

On to `CCOC(=O)Cl`, for which the “activity change, negative = cytotoxicity” value is inactive: 0.128%.

Consider `CN(C(=O)Cc1cccc2occc12)[C@H]1CC[C@@]2(CCCO2)C[C@@H]1N1CCCC1`, for which the “activity change, negative = cytotoxicity” value was inactive: -8.89%.

For the compound `O=P(Cl)(Oc1ccccc1)Oc1ccccc1`, the “activity change, negative = cytotoxicity” value is inactive: 0.512%.

With `CC(C)OP(=S)(OC(C)C)SCCNS(=O)(=O)c1ccccc1`, the “activity change, negative = cytotoxicity” value is inactive: 2.31%.

In the case of `CN(N=O)C(=N)N[N+](=O)[O-]`, the “activity change, negative = cytotoxicity” value was inactive: -15.5%.

Consider `O=C(Cl)Oc1ccccc1`, for which the “activity change, negative = cytotoxicity” value was inactive: -1.84%.

Regarding `COC(=O)Cl`, the “activity change, negative = cytotoxicity” value was inactive: 6.25%.

For the compound `Cc1cc([N+](=O)[O-])c(O)c([N+](=O)[O-])c1`, the “activity change, negative = cytotoxicity” value was inactive: 1.01%.

Regarding `CCOP(=S)(CC)Sc1ccccc1` (stereo not drawn), the “activity change, negative = cytotoxicity” value was inactive: -0.585%.

Consider `ClP(Cl)c1ccccc1`, for which the “activity change, negative = cytotoxicity” value is inactive: -0.171%.

`O=[P+](Oc1ccccc1)Oc1ccccc1`: the “activity change, negative = cytotoxicity” value was inactive: 9.47%.

Turning to `NC(=O)Nc1ccc([As](=O)(O)O)cc1`, the Potency entry was “inactive”.

Take `O=[N+]([O-])c1ccc([N+](=O)[O-])cc1`: the “activity change, negative = cytotoxicity” value was inactive: -9.16%.

As to `CCCCC(CC)CO[P+](=O)OCC(CC)CCCC` (stereo not drawn), the “activity change, negative = cytotoxicity” value was inactive: -5.29%.

`CCCCOP(OCCCC)OCCCC`: the “activity change, negative = cytotoxicity” value was inactive: 1.38%.

Regarding `CN(C(=O)Cc1ccc(Cl)c(Cl)c1)[C@H]1CC[C@@]2(CCCO2)C[C@@H]1N1CCCC1`, the “activity change, negative = cytotoxicity” value is inactive: 1.49% [at 30.3 µM].

On to `O=[p+]1oc2ccccc2c2ccccc21` (stereo not drawn), for which the “activity change, negative = cytotoxicity” value is inactive: -0.141%.

For the compound `CCC(C)(OOC(C)(C)C)OOC(C)(C)C`, the activity change, negative = cytotoxicity was inactive: 3.64% [at 13.5 µM].

`O=P(Cl)(Cl)c1ccccc1`: the “activity change, negative = cytotoxicity” value was inactive: 0%.

As to `O=[As]c1ccccc1` (stereo not drawn), the Potency was active: 4.08 µM.

On to `COP(=S)(Cl)OC`, for which the “activity change, negative = cytotoxicity” value is inactive: -1%.

`CC(C)CCCCCCCOP(OCCCCCCCC(C)C)Oc1ccccc1`: the “activity change, negative = cytotoxicity” value was inactive: 0.0722%.

Take `O=[N+]([O-])c1ccc(S(=O)(=O)O)c([N+](=O)[O-])c1`: the “activity change, negative = cytotoxicity” value was inactive: 0.639%.

In the case of `O=C(Cl)OCCOC(=O)Cl`, the “activity change, negative = cytotoxicity” value was inactive: 4.98%.

With `CCCCO[P+](=O)OCCCC`, the Potency entry is “inactive”.

With `Cc1cc([N+](=O)[O-])cc([N+](=O)[O-])c1O`, the “activity change, negative = cytotoxicity” value is inactive: 2.15%.

For `CN(C(=O)Cc1ccccc1)[C@H]1CC[C@@]2(CCCO2)C[C@@H]1N1CCCC1`, the “activity change, negative = cytotoxicity” value was inactive: 1.92% [at 30.3 µM].
